Drawing on ChEMBL document CHEMBL1949519, “Probing human red cone opsin activity with retinal analogues” (J Nat Prod, 2011), this text covers Activity for 3 molecules.

Structures are written as SMILES. Activity calls are given as the source filed them. The rule behind the calls is not given here.

In experiment [1] the target is T1, Long-wave-sensitive opsin 1 (Homo sapiens) (UniProt P04000).
T1 sequence (whole entry): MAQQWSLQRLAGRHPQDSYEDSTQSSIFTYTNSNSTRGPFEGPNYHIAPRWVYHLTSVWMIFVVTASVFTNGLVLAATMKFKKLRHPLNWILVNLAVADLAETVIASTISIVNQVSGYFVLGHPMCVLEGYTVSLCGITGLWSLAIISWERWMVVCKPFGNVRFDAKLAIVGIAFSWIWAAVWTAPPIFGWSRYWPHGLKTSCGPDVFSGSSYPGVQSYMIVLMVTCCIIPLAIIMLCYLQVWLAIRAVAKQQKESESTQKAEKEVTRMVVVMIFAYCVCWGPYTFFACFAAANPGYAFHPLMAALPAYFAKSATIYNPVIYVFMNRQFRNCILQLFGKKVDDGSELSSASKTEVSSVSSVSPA
The experiment can be described thus: Agonist activity at human red cone opsin expressed in COS1 cells assessed as activation of transducer at 20 uM by radioactive filter binding assay. Format: cell-based. The following applies: COS-1.

In experiment [2] the target is T1, Long-wave-sensitive opsin 1 (Homo sapiens). The experiment can be described thus: Inverse agonist activity at human red cone opsin expressed in COS1 cells assessed as transducer activity at 20 uM by radioactive filter binding assay. Type of experiment: cell-based. To be noted: COS-1.

Consider `CC1=C(/C=C/C(C)=C/C=C/C(C)=C\C=O)C(C)(C)CCC1`, for which the result in experiment [1] was Active.
Consider `CC1=C(/C=C/C(C)=C/C=C/C(C)=C/C=O)C(C)(C)CCC1`, for which the outcome in experiment [1] was Active.
On to `CC1=C(/C=C/C(C)=C/C=C\C(C)=C\C=O)C(C)(C)CCC1`, for which the outcome in experiment [2] was Active.
